Measurements reported in patent publication US20120094356A1 (ALTEOGEN, published 2012).

Biological target: T1, human neutrophil elastase (human, UniProt P08246 30-247, limits assumed)
T1 sequence (looked up): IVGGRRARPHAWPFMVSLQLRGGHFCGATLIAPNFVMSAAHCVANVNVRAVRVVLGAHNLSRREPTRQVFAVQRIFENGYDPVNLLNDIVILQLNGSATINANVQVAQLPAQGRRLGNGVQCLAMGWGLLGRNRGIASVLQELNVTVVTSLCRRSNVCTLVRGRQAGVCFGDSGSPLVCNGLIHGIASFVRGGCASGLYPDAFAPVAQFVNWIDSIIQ
Assay: human neutrophil elastase inhibition assay, 40 nM each, chromogenic substrate; Ka calculated

Ka: ~1.4e+07 M⁻¹
B1: human growth hormone/alpha-1 antitrypsin monovariant fusion [T109: α1AT(P357N)/hGH] (other)
chain: EDPQGDAAQKTDTSHHDQDHPTFNKITPNLAEFAFSLYRQLAHQSNSTNIFFSPVSIATAFAMLSLGTKADTHDEILEGLNFNLTEIPEAQIHEGFQELLRTLNQPDSQLQLTTGNGLFLSEGLKLVDKFLEDVKKLYHSEAFTVNFGDTEEAKKQINDYVEKGTQGKIVDLVKELDRDTVFALVNYIFFKGKWERPFEVKDTEEEDFHVDQVTTVKVPMMKRLGMFNIQHCKKLSSWVLLMKYLGNATAIFFLPDEGKLQHLENELTHDIITKFLENEDRRSASLHLPKLSITGTYDLKSVLGQLGITKVFSNGADLSGVTEEAPLKLSKAVHKAVLTIDEKGTEAAGAMFLEAINMSIPPEVKFNKPFVFLMIDQNTKSPLFMGKVVNPTQKGGGGS[sequence of about 200 residues omitted]
modifications: new N-glycosylation site Asn-X-Ser at position 357 of alpha-1 antitrypsin
